The values below come from ChEMBL document CHEMBL1143371, “2-Aminoimidazoles inhibitors of TGF-beta receptor 1” (Bioorg Med Chem Lett, 2009).

Broadly, the Ki is a measure of affinity in units of concentration, obtained from inhibition or displacement. Read a low Ki as tighter binding.

In the assay the target is T1, TGF-beta receptor type-1 (Homo sapiens, UniProt P36897).
T1 sequence (P36897 whole entry): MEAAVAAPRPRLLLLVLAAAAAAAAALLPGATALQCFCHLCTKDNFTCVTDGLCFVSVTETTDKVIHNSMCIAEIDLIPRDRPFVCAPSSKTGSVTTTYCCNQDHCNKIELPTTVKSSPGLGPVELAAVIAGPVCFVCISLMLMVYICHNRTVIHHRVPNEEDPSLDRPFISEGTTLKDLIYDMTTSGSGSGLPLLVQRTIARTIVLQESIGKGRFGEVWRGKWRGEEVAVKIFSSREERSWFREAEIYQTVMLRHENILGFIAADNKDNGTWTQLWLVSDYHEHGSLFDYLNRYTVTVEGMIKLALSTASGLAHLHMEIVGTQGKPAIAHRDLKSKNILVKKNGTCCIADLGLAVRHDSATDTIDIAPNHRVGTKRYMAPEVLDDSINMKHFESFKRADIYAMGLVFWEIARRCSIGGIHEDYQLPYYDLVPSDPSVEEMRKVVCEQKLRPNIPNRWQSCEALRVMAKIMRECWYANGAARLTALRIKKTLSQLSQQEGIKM
Description: Binding affinity to human TGFBR1.

In turn, `CC(=O)Nc1nc(-c2ccc(F)c(C)n2)c(-c2ccc3nccnc3c2)[nH]1` gave a Ki of 7.1 nM.
